Measurements reported in patent US9624269B2, “Peptide inhibitors of BACE1” (GENENTECH, INC., priority 2011, dated 2017).

Amino acid sequences for entries named in this document (tags omitted). Residues count along the entry.
UniProt P56817, 22-457: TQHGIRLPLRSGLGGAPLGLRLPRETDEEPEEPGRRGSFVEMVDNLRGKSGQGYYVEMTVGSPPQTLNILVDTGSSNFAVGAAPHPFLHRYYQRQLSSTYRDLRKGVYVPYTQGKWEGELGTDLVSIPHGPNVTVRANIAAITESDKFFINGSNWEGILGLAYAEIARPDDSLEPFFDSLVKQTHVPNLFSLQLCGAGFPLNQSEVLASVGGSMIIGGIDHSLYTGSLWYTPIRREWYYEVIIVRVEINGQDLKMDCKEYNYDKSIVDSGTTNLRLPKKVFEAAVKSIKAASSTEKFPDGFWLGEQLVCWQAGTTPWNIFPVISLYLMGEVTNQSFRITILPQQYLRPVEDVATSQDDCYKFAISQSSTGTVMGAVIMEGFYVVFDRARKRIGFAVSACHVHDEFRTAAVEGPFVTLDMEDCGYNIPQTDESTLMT

Biological target: BACE1 (Homo sapiens, UniProt P56817)
Assay: Biotinylated BACE020 competition binding ELISA
Parameters: extracellular domain (ECD) (residues 22-457) and a C-terminal His8 tag; made in house; host or cells: Chinese hamster ovary cells (transient)
Details: concentration dependent addition of competitor
Experimental: Competition binding ELISA experiments were carried out using biotinylated BACE020 and a concentration dependent addition of BACE020, 0M99-2 or BMS1 peptides.
Binding of biotinylated BACE020 to recombinant protein was determined by a 96-well plate assay. Maxisorp microtiter plates (Nalge Nunc International, Rochester, N.Y.) were coated overnight at 4° C. with 2 μg/ml BACE 1 mutant in 50 mM carbonate, pH 9.6. The coated wells were washed with buffer (PBS, 0.05% Polysorbate 20) and blocked with assay buffer (PBS, pH 7.4, 0.5% BSA, 0.05% Tween 20, 15 ppm Proclin) for 1 h at room temperature with gentle shaking. […] After washing, the amount of peptide bound to the plate was detected by the addition of Streptavidin-Horseradish Peroxidase Conjugate (GE Healthcare, Piscataway, N.J.) followed by the addition of TMB/H2O2 substrate (KPL, Gaithersburg, Md.). The reaction was quenched with 1 M phosphoric acid and the A450 measured on a Molecular Devices SpectraMax Plus384 microplate reader. Concentrations to give half maximal effective concentration (EC50) were determined using a 4-parameter non-linear regression curve-fitting program with Kaleidagraph (Synergy Software, Reading, Pa.). […] Concentrations to give half maximal inhibition concentration (IC50) were determined using a 4-parameter non-linear regression curve-fitting program with Kaleidagraph.

Competition for binding of biotinylated BACE020 to BACE1: did compete
Substance: OM99-2 [reference compound]
